Structures are written as SMILES. This is a selection; strong and weak results do not stand in their true shares. The source made the active and inactive calls.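 How the source made its calls: active means activation above the mean of all tested compounds plus 3 SD (cut at about 9.5% in these data); inactive means the rest.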

This assay is described as follows: compounds raising TTR promoter-driven luciferase – cell-based, luminescence, SH-SY5Y, TTR promoter Gaussia luciferase, primary screen (AID 1117267).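 Further: cells exposed to compounds for one day before reading; 0% = median of all test compound wells on the plate.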 As to conditions: at 16.7 µM, active compounds read high, 100% = recombinant luciferase protein wells.
As for `O=[N+]([O-])c1cc([N+](=O)[O-])c(Nc2nnnn2CCO)c([N+](=O)[O-])c1`, the activation was inactive: 0.93%.
With `CN1CCCCC1COC(=O)C1(O)c2ccccc2CCc2ccccc21` (configuration not stated) the figure was inactive: 2.24%.
The result for `CP(=O)(Nc1ccc(SC(F)(F)F)cc1)Oc1ccccc1` (configuration not stated) reads inactive: -2.2%.
With `O=[N+]([O-])c1cc([N+](=O)[O-])c(-c2cnn(-c3ccccc3)c2)c([N+](=O)[O-])c1` the figure was inactive: 0.72%; with `Cc1ccc(C)c(NP(C)(=O)Oc2ccccc2)c1` (configuration not stated), inactive: 1.95%; with `CP(=O)(Nc1ccc(SC(F)(F)F)cc1)Oc1ccc(Cl)cc1` (configuration not stated), inactive: -1.46%.
Turning to `CCc1ccc(OP(C)(=O)N2CCN(c3ccc([N+](=O)[O-])cc3)CC2)cc1` (configuration not stated), the activation was inactive: -3.77%.
For the compound `O=[N+]([O-])c1cc([N+](=O)[O-])c(O)c([N+](=O)[O-])c1.c1ccc(Oc2ccncc2)cc1`, the activation was inactive: -0.36%.
With `CP(=O)(Nc1ccccn1)Oc1ccc(Cl)cc1` (configuration not stated) the figure was inactive: 0.69%.
The result for `COc1ccccc1OP(C)(=O)Nc1ccccc1` (configuration not stated) reads inactive: 1.01%; that for `COc1ccc(OP(C)(=O)Nc2ccc(Br)cc2)cc1` (configuration not stated), inactive: -0.08%.
With `O=C(OCCCN1CCCC1)C(O)(c1ccccc1)C1CCCCC1` (configuration not stated) the figure was inactive: 5.31%; with `COc1ccccc1OP(C)(=O)Nc1ccccc1Br` (configuration not stated), inactive: 1.5%.
As to `CN(C)C(=O)c1c([N+](=O)[O-])cc([N+](=O)[O-])cc1[N+](=O)[O-]`, the activation is inactive: 0.53%.
With `O=[N+]([O-])c1cc([N+](=O)[O-])c(Nc2ccccn2)c([N+](=O)[O-])c1` the figure was inactive: -6.12%.
`CP(=O)(Nc1ccccn1)Oc1ccccc1` (configuration not stated): the activation is inactive: 2.84%.
With `COc1ccc(OP(C)(=O)Nc2ccc(SC(F)(F)F)cc2)cc1` (configuration not stated) the figure was inactive: 5.62%; with `O=[N+]([O-])c1cc([N+](=O)[O-])c(OC2CCCCC2O)c([N+](=O)[O-])c1` (configuration not stated), inactive: -1.78%; with `O=C(OC1CN2CCC1CC2)c1ccc([N+](=O)[O-])cc1` (configuration not stated), inactive: 1.82%.
The result for `CP(=O)(Nc1ccc(SC(F)(F)F)cc1)Oc1ccc(F)cc1` (configuration not stated) reads inactive: -2.77%.
The result for `CCOP(C)(=S)SCC(=O)NC(C)(CC)C(=O)O` (configuration not stated) reads inactive: -1.68%; that for `Cc1ccccc1NP(C)(=O)Nc1ccccc1C`, inactive: 1.46%.

For the origin of these results see PubChem BioAssay AID1117267 (The Scripps Research Institute Molecular Screening Center, 2014).
